This note sets out measurements from patent US10709791B2, “Stabilized polymeric carriers for therapeutic agent delivery” (University of Washington, priority 2014, dated 2020).

Data set [1] is described as follows: Serum stability of peptide macromonomers and polymers. The conditions noted are these: 37° C., 0 to 12 hours, MALDI-TOF MS. The class given is in vitro ADME, human.
The subject of data set [2] is SKOV3 human ovarian cancer cells. The conditions noted are these: 96 hours.
The conditions of data set [3]: human serum, 37° C., at 24 h.
For data set [4] the following is noted: diblock with discrete hydrophobic drug block.

Read-outs that look alike come from different tables or passages of the source.

Take “poly[(DEAEMA)-co-(BMA)]-b-[(PEGMA300)-c-(MaAhxFKFLAhxScrBIM)] [PolScrBIM]”: in data set [1], the “stability of the FKFL linker in human serum” value is reported as 2980 Da peak was absent at all time points. In addition, the hydrodynamic diameter is, setting by setting: (endosomal pH values (6.6-5.8)) 6 nm; (pH 5.8) 6 nm; (pH 7.4 (physiological pH)) 26 nm; (pH 7.4 (physiological pH), listed as PolSrBIM) “approximately 25 nm”.

In the case of “poly[(DEAEMA)-co-(BMA)]-b-[(PEGMA300)-c-(MaAhxFKFLAhxBIM)] [PolBIM]”, the “stability of the FKFL linker in human serum” value in data set [1] is 2980 Da peak was absent at all time points. Further, the hydrodynamic diameter (endosomal pH values (6.6-5.8)) is reported as 6 nm; the hydrodynamic diameter (pH 5.8) came out at 6 nm; the hydrodynamic diameter entry (pH 7.4 (physiological pH)) was “approximately 25 nm”; the hydrodynamic diameter (pH 7.4 (physiological pH), listed as Pol{right arrow over (BIM)}) is recorded as 25 nm. This substance had a cells remaining viable in data set [2] (10 μM) of 25%. Also, the cell viability entry in data set [2] (all polymer concentrations (0-10 μM)) is “reduced the viability”.

Take “ciprofloxacin-(phenol)methacrylate [CPM]”: the drug release in data set [3] is on record as around 50%.

“poly(methacrylic acid-co-dimethylaminoethyl methacrylate)-b-(DtSMA) [poly(MA-co-DMAEMA)-b-(DtSMA)]”: the “effect of self assembly on ester hydrolysis / drug release rate” value in data set [4] is listed as “significantly reduces the ester hydrolysis rate”.
